One assay deals with KAT-8 (Homo sapiens (Human), UniProt Q9H7Z6). As to the kind of experiment: KAT-8 biochemical inhibition assay (SAMDI mass spectrometry). The note with it: read-out: KAT-8 IC50. As to the method: (§1) KAT-8. Enzyme assay buffer was 50 mM Tris pH 8.0, 0.002% Tween20, 0.005% bovine skin gelatin, and 1 mM dithiothreitol (DTT). For determination of IC50 values, compounds were serially diluted with 2% (v/v) DMSO in the final reaction, pre-incubating each dilution of each compound with 40 μL of assay buffer containing KAT-8 enzyme (12.5 nM final concentration). 10 μL of assay buffer containing 1 μM peptide substrate and 5 μM acetyl coenzyme A (final concentrations) was added. Reactions (50 μL total) were then carried out at 25° C. for 90 minutes. Reactions were terminated by the addition of 0.5% formic acid (final concentration), and a sample of each reaction was analyzed by SAMDI Tech, Inc. (Chicago, Ill.) using self-assembled monolayer desorption/ionization time-of-flight mass spectrometry (Mrksich, M. (2008) Mass spectrometry of self-assembled monolayers: a new tool for molecular surface science. ACS Nano 2, 7-18).

Sequences of proteins named here, by UniProt entry; tags and fusion partners are left off. A line that says so, or that is headed by a name, gives the form on record, which may keep a tag or linker. Residues count along the entry.
UniProt Q9H7Z6, 1-458 with tags or gaps limits assumed: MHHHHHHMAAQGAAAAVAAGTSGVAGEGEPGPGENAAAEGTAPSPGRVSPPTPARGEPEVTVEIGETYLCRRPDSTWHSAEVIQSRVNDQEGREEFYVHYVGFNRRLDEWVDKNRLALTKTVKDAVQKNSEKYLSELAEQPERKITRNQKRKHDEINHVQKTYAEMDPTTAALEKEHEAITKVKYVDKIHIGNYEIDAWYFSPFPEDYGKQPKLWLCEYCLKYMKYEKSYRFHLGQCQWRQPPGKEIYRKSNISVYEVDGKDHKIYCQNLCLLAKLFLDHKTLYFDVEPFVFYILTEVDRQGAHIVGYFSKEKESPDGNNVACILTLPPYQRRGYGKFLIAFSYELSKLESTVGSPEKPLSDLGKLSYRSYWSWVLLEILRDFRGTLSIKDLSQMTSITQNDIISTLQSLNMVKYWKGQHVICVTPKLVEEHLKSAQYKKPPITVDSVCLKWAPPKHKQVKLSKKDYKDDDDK
UniProt Q92794, 501-784 with tags or gaps limits assumed: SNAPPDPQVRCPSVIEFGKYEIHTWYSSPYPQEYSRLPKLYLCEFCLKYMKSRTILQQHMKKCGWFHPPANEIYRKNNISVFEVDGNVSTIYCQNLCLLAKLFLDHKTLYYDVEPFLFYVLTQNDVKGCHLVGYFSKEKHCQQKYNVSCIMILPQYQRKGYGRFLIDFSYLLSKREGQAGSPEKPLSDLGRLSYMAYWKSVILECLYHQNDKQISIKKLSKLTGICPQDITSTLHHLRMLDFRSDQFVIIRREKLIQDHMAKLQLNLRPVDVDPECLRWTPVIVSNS
UniProt O95251, 1-611 with tags or gaps limits assumed: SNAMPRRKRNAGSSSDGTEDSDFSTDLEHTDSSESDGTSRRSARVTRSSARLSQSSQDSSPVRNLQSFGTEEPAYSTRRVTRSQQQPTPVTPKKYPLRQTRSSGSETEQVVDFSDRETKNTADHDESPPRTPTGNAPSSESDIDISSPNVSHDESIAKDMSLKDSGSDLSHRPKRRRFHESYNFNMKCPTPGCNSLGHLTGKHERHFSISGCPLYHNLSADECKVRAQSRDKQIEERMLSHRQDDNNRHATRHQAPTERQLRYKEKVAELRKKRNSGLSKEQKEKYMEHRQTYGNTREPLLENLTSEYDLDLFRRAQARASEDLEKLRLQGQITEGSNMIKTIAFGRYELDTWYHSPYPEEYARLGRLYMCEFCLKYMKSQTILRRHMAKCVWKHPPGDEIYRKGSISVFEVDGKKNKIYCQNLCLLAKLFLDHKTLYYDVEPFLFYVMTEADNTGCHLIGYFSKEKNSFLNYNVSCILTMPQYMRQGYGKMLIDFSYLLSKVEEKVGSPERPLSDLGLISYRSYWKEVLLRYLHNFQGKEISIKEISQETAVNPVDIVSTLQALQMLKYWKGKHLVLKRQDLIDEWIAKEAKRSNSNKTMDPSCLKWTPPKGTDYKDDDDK
UniProt Q92993, 1-513 with tags or gaps limits assumed: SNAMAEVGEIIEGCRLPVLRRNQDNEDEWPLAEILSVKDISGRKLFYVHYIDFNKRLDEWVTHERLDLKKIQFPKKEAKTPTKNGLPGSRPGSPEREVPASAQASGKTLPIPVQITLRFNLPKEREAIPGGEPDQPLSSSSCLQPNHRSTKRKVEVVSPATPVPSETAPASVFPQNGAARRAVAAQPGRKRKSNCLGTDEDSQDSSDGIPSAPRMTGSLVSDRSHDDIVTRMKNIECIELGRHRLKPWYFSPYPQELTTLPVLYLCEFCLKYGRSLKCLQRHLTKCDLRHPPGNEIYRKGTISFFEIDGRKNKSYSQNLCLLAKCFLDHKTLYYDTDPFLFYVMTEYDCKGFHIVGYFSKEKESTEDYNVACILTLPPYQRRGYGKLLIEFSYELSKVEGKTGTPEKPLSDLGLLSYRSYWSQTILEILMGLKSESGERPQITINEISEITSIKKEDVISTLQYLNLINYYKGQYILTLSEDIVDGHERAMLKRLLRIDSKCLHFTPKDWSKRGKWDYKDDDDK

The target in a further assay is KAT-6A (Homo sapiens (Human), UniProt Q92794). The assay is described as follows: KAT-6A biochemical inhibition assay (SAMDI mass spectrometry). To be noted: read-out: KAT-6A IC50. The procedure:
as §1, with “KAT-6A. Enzyme” for “KAT-8. Enzyme”, “containing KAT-6A” for “containing KAT-8”, “and 1” for “and 5”

In another assay the target is KAT-7 (Homo sapiens (Human), UniProt O95251). The assay is described as follows: KAT-7 biochemical inhibition assay (SAMDI mass spectrometry). To be noted: read-out: KAT-7 IC50. The procedure:
as §1, with “KAT-7. Enzyme” for “KAT-8. Enzyme”, “containing KAT-7” for “containing KAT-8”, “enzyme (6” for “enzyme (12.5”, “and 2” for “and 5”, “for 120” for “for 90”

In the next assay the target is KAT-5 (Homo sapiens (Human), UniProt Q92993). The assay is described as follows: KAT-5 biochemical inhibition assay (SAMDI mass spectrometry). The note with it: read-out: KAT-5 IC50. As to the method: as §1, with “KAT-5. Enzyme” for “KAT-8. Enzyme”, “containing KAT-5” for “containing KAT-8”, “enzyme (9” for “enzyme (12.5”, “and 0.5” for “and 5”

A value given as a limit tells only on which side of the number the result lay.

As usually defined, the IC50 is the point on the concentration scale where inhibition reaches its midpoint. On to `O=C(NNS(=O)(=O)CC1CCCCC1)c1cc(-c2cnc[nH]2)cc(Cl)c1F`, for which, on KAT-8, the IC50 was in the range of 10 to 50 µM.
Regarding `Cc1[nH]ncc1-c1cc(Cl)c(F)c(C(=O)NNS(=O)(=O)CC2CCOCC2)c1`, on KAT-8, the half-inhibitory concentration (IC50) was in the range of 10 to 50 µM.
The same measure, in the same setting: then `Cn1cnc(-c2cc(Cl)c(F)c(C(=O)NNS(=O)(=O)c3c[nH]nn3)c2)c1`, with 10 to 50 µM.
`O=C(NNS(=O)(=O)CC1CCCCC1)c1cc(-c2ccn[nH]2)cc(Cl)c1F`: the concentration for half-maximal inhibition (IC50) is less than 10 µM at KAT-6A, less than 10 µM on KAT-7, 10 to 50 µM on KAT-8 and less than 10 µM on KAT-5.
With `Cn1cnc(-c2cc(Cl)c(F)c(C(=O)NNS(=O)(=O)c3cn[nH]c3)c2)c1`, the half-inhibitory concentration (IC50) on KAT-8 was 10 to 50 µM.
For `O=C(NNS(=O)(=O)CC1CCCCC1)c1cc(-c2cn[nH]c2)cc(Cl)c1F`, the 50% inhibitory concentration (IC50) on KAT-8 fell in the range of 50 to 100 µM.

The values are drawn from patent US11685732B2, “MYST family histone acetyltransferase inhibitors” (Epizyme, Inc., priority 2017, dated 2023).
